Results reported in US9956199B2, “Chromane-like cyclic prenylflavonoids for the medical intervention in neurological disorders” (priority 2011, dated 2018).

Test system: promoter of the neuronal precursor specific gene doublecortin (DCX)
Assay: DCX promoter firefly-luciferase assay in primary fetal mouse brain derived (MEF) cells
Assay type: cell-based
Details: DCX promoter-luciferase transfected MEF cells, stimulated three days
Protocol: Chromane-like cyclic prenylflavonoids, including the compounds 1a to 1g, 2a, 3a and 3b according to the invention, were tested for their ability to induce the promoter of the neuronal precursor specific gene doublecortin (DCX) in a firefly-luciferase assay using primary fetal mouse brain derived cells (Karl, 2005) in Neurobasal plus 1% FCS.
Primary mouse embryonic day 16 forebrain (MEF) cultures were prepared as follows. Pregnant NMRI mice (Charles River Laboratories, Sulzfeld, Germany) were sacrificed and the uteri promptly removed and immersed in ice-cold Dulbecco's phosphate buffered saline solution—DPBS (PAA, Pasching, Austria). Eight embryonic day (E) 16 embryos were released from the uteri; forebrains were taken out, separated from surrounding tissues and mechanically dissociated using a razor blade. Subsequently the dissociated cells were collected by 5 min centrifugation at 120×g. The pellet was resuspended in 10 ml PPD-solution containing 0.01% papain (Worthington, England), 0.1% Dispasell (Roche, Basel, Switzerland), 0.01% DNasel (Worthington, England), 12.4 mM MgSO4 dissolved in HBSS w/o Ca/Mg (PAA, Pasching, Austria). The cell suspension was incubated at 37° C. and triturated every ten minutes for three times. […] Cell number was determined by Trypan blue exclusion. […]

Question: `Cc1c(C)c2c(c(C)c1O)CCC(C)(CCCC(C)CCCC(C)CCCC(C)C)O2` (racemic) [tocopherol, 2,5,7,8-tetramethyl-2-(4,8,12 trimethyltridecyl)chroman-6-ol, reference compound] was tested. Which “stimulatory effect on the DCX promoter activity (FF/R relative to control)” value did it give?
Answer: did not have any significant stimulatory effect
